ALOX12 inh = ALOX12 (human) lipoxygenase inhibition. purified 12hLO, xylenol orange hydroperoxide absorbance. Potency, µM (top dose mostly 108 µM), inactives show at the highest dose activity change, negative = inhibition, actives largely listed as inhibitors. 1.1% of 580,000 active. AID 1671190; also: % is scaled to controls: 0 for no effect and ±100 for the full control effect
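Purified human 12hLO at 150 nM in 25 mM Hepes, 0.01% Triton X-100, pH 7.0, preincubated 15 min at room temperature with compound. Reaction started with 40 uM arachidonic acid, 30 min at room temperature. Hydroperoxide measured by Fe-xylenol orange, 573/405 nm absorbance ratio.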
ClpP mod = qHTS Assay for Activators of ClpP. ATP-dependent Clp protease proteolytic subunit (Bacillus subtilis (strain 168)), P80244. purified B. subtilis ClpP, FRET peptide cleavage, 20 min. Potency, µM (series often up to 57.5 µM), for the others: at the highest dose activity change, negative = active. 1.9% of 340,000 active. AID 651965, 2013; active = well fitted falling curve with a large enough effect; inconclusive = small, poorly fitted or top-dose-only effect; inactive = no such curve, though single readings can be large or run the other way; also: the source files actives as falling curves though it sought activators and does not explain the sign; nearly all actives have a fitted effect of over 65% in size
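Buffer: 100 mM Tris/HCl pH8, 100 mM KCl, 0.05% low protease BSA, 2.5% glycerol, 0.01% Tween-20. ClpP 10 microg/mL final; 20 min RT; delta FRET normalized to ADEP and DMSO controls.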
TSG101-PTAP inh = blocks PTAP/TSG101 interaction to inhibit HIV-1 budding. 340,000 tested, under 10 active. AID 493005. Fluorescence polarization, FITC-PTAP peptide / Tsg101 binding. Q99816. Potency, µM (doses to about 115 µM), for the others: top-dose activity change, negative = inhibition, usual class: inhibitors; active = well fitted inhibition curve with a large enough effect in the main read-out, with a control signal flat, not every such curve was filed as active; inconclusive = small, poorly fitted or top-dose-only effect, or effect the other way, or a change in a side signal; inactive = no such curve, though single readings can be large or run the other way; also: % of control where 0% means no effect
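FP read-out: FITC-PTAP peptide, 50 nM final, binding Tsg101 binding domain, 10 uM final; 20 min, r.t.; 10 mM HEPES pH 7.5, 0.15 M NaCl, 0.01% Tween 20, 3 mM EDTA, 0.1 mM TCEP.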
TDP1 block = inhibitors of human tyrosyl-DNA phosphodiesterase TDP1; AID 485290; 0.28% of 350,000 active; recombinant TDP1, AlphaScreen DNA substrate cleavage; Potency, µM (titrated, usually from 130 µM), for inactives: at the highest dose activity change, negative = inhibition, actives largely listed as inhibitors; Q9NUW8; also: % is scaled to controls: 0 for no effect and ±100 for the full control effect; nearly all actives have a fitted effect of over 40% in size
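Recombinant E. coli-expressed Tdp1 (1 nM) preincubated with compound 15 min at RT, then 5'-biotin/3'-phosphotyrosine-FITC DNA substrate (15 nM) added for 5 min. AlphaScreen beads (10 ug/ml) added, 10 min RT; tyrosine-FITC cleavage read as signal loss.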
Rango release inh = prevents RanGTP from dissociating the Rango-importin beta complex; AID 540253; 0.071% of 340,000 active; O95149+P62826; Biochemical FRET Rango-importin beta, RanGTP-induced dissociation; Potency, µM (doses to about 46.1 µM), for inactives: at the top dose activity change, negative = inhibition; calls by dose curve; also: % of control where 0% means no effect; nearly all actives have a fitted effect of over 45% in size
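Two FRET readings bracket the reaction: one 5 min after compound meets Rango–importin beta, another 45 min after RanGTP-RCC1 (0.6 uM Ran, 0.2 uM RCC1, 2 mM GTP) is added. Only the second defines inhibition.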
Rango-impB inh = prevents formation of the Rango-importin beta complex. Q14974. Rango CFP/YFP FRET sensor + importin beta, 45 min. Potency, µM (top dose mostly 92.2 µM), inactives show at the top dose inhibition of complex formation. 0.031% of 340,000 active. AID 540263; calls by dose curve;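 also: 0% = DMSO wells and 100% = buffer wells lacking importin beta; nearly all actives have a fitted effect of over 15% in size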
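FRET biosensor (snurportin 1 IBB flanked by EYFP and cerulean), 50 nM, with compound 5 min, then 0.125 microM importin beta in PBS, 1 mM DTT, 0.02% Tween-20, 0.1% BSA. CFP/YFP ratio read after 45 min at room temperature; pre-read flags interference.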
Starred values were filed as active, the others as inactive; ? = inconclusive; . = not tested or not shown; [ ] = another dose, or the depositor's remark. Only some compounds are listed: those with a hit (about 2.4% of all), similar ones and a draw of the others. Unless noted, calls follow the shape of the dose curve; as a rule, active = well fitted curve in the direction sought with a large enough effect; inconclusive = small, poorly fitted or top-dose-only effect, or another doubt; inactive = no such curve, though single readings can be large; an effect the other way counts as inactive or inconclusive. Potency is read from the fitted curve at half-maximal effect.

SMILES | ALOX12 inh | ClpP mod | TSG101-PTAP inh | TDP1 block | Rango release inh | Rango-impB inh
COC(=O)[C@@]1(Sc2ccc(OC)cc2)CC(=O)N(c2ccc(OC)cc2)[C@@H]1c1ccc(OC(C)C)c(OC)c1 | -18% | . | . | . | . | .
O=C(O)C1(c2ccccc2)CC1c1ccccc1 (configuration not stated) | -15% | . | . | . | . | .
COc1ccc2c(c1)[nH]c1c(=O)n(Cc3ccccn3)cnc12 | 0% | -8% | -1% | -5% | 0% | 0%
CCC1CCCN1Cn1cnc2c([nH]c3ccc(C)cc32)c1=O (configuration not stated) | 2% | 28µM* | -1% | 5% | -4% | 0%
Cc1ccc2c(c1)[nH]c1c(=O)n(Cc3ccccn3)cnc12 | 11% | 32µM* | -5% | 7% | -5% | ?
Cc1cc(C(=O)N[C@H](C)c2onc(C)c2C(=O)O)no1 | 1%[176 µM] | . | . | . | . | .
COc1cccc(CNC(=O)c2ncoc2-c2cccs2)c1OC | 47% | . | . | . | . | .
Cn1nc(C(F)(F)F)c(C#N)c1N1CCN(c2ccc(F)cc2)CC1 | -4% | 14µM* | -7% | -2% | -2% | 5%
Cn1nc(C(F)(F)F)c(C#N)c1N1CCN(c2ccccc2)CC1 | 7% | -5% | -7% | -9% | -11% | 4%
Cc1cc([N+](=O)[O-])nn1CCCC(=O)Nc1sc2c(c1C(N)=O)CCCC2 | 45µM* | -10% | -1% | 1% | 10% | -1%
NC(=O)c1c(NC(=O)CCCn2cnc([N+](=O)[O-])n2)sc2c1CCCC2 | 40µM* | . | 0% | 0% | 5% | 0%
NCc1cccc(-c2ccsc2)c1 | 42%[176 µM] | . | . | . | . | .
Cc1cc(S(=O)(=O)N2CCC(NS(=O)(=O)c3cccs3)CC2)ccc1Br | -18% | . | . | . | . | .
O=C(Nc1ccc(-c2nc3c(ccc4ccccc43)o2)cc1)c1ccco1 | -16% | 13µM* | -2% | 2% | -21% | 2%
O=C(Nc1ccc(-c2nc3cc(Cl)ccc3c(=O)o2)cc1)c1ccco1 | -19% | 0% | -1% | -4% | 3% | 0%

4 entries already listed, sorted by their value in ALOX12 inh, descending:
Compound	ALOX12 inh
Cn1nc(C(F)(F)F)c(C#N)c1N1CCN(c2ccccc2)CC1	7%
CCC1CCCN1Cn1cnc2c([nH]c3ccc(C)cc32)c1=O (configuration not stated)	2%
COc1ccc2c(c1)[nH]c1c(=O)n(Cc3ccccn3)cnc12	0%
COC(=O)[C@@]1(Sc2ccc(OC)cc2)CC(=O)N(c2ccc(OC)cc2)[C@@H]1c1ccc(OC(C)C)c(OC)c1	-18%

Next section
SMILES | ALOX12 inh | ClpP mod | TSG101-PTAP inh | TDP1 block | Rango release inh | Rango-impB inh
O=C(Nc1ccc2nc(SCc3ccc(Br)cc3)sc2c1)c1ccc(Cl)cc1 | 4% | . | . | . | . | .
CC(C(=O)Nc1cc(Cl)cc(Cl)c1)N1CCN(c2ccc(O)cc2)CC1 (configuration not stated) | 20µM* | . | . | . | . | .
COC(=O)[C@@H]1Cc2ncn(Cc3ccc(OC)cc3)c2CN1C(=O)CCC(=O)O | 59%[176 µM] | . | . | . | . | .
CCN1/C(=C/c2cccc[n+]2C)Sc2ccc(OC)cc21 | 29% | 0% | -6% | . | -14% | ?
CC[n+]1c(C)ccc2cc(C)ccc21 | 5.6µM* | . | . | . | . | .
CCCCN1/C(=C/c2ccc3ccccc3[n+]2CC)Sc2ccccc21 | . | . | 12% | 2% | 16% | 46µM*
CCCCN1/C(=C/c2cccc[n+]2C)Sc2cc(NC(C)=O)ccc21 | ? | -4% | 0% | . | -8% | 0%
CC[n+]1c2ccccc2cc2ccccc21 | . | 5% | . | . | . | .
CCN1/C(=C/c2ccc3cc(C)ccc3[n+]2C)Sc2ccc3sccc3c21 | 45µM* | -1% | -1% | 0% | ? | ?
CCN1/C(=C/c2ccc3cc(C)ccc3[n+]2CC)Sc2cc(C)ccc21 | 35µM* | 2% | 14% | 2% | ? | ?
CN1CCN(Cc2cc(F)cc(Cl)c2)CC12CCNC(=O)CC2 (configuration not stated) | 51% | . | . | . | . | .
Cc1ccc(C(C)(C)c2ccc(C(=O)O)cc2)cc1C | -12% | . | . | . | . | .
Cc1nc(C(=O)N2CCC(c3[nH]ncc3-c3ccccc3C)CC2)cs1 | 55% | . | . | . | . | .
Cc1cc(C)cc(C(=O)N2CCCN(C)c3ccccc32)c1 | 27% | . | . | . | . | .
COCCNC(=O)C1CCN(C(=O)C2CN(c3cccc(OC)c3)C(=O)N2)C1 (configuration not stated) | -5% | . | . | . | . | .

Going on with the list.
SMILES | ALOX12 inh | ClpP mod | TSG101-PTAP inh | TDP1 block | Rango release inh | Rango-impB inh
Cc1ccc(NC(=O)C2CCN(C(=O)c3ncn4c3COC(c3ccc(F)cc3)C4)CC2)c(C)c1 (configuration not stated) | 7% | . | . | . | . | .
Cc1nnc(SCc2cccc(Oc3ccccc3)c2)n1N | 4% | 3.2µM* | 0% | 5% | 7% | 0%
Cc1nnc(SCC(=O)Nc2ccc(Oc3ccccc3)cc2)n1N | 0% | -2% | -9% | 3% | -3% | 4%
CC(=O)Nc1ccc(C(=O)N2CCN(c3ccc(Cl)nn3)C(=O)C2)cc1 | 14%[6.33 µM] | . | . | . | . | .
Cc1cc(F)ccc1S(=O)(=O)Nc1ccc(N2CCCC2)c(F)c1 | 4µM* | . | . | . | . | .
Fc1ccccc1-c1cnc2n[nH]c(-c3ccccc3)c2n1 | 1%[176 µM] | . | . | . | . | .
CC(Cn1cccn1)Nc1ccc(-c2nc(-c3ccccc3F)no2)cn1 (configuration not stated) | 24% | . | . | . | . | .
CCCCOc1ccccc1NC(=O)c1ccco1 | 0% | 13µM* | -3% | 0% | -1% | 2%
Cc1ccc(C(=O)C(C#N)C(=O)NC2CCCCC2)c(C)c1 (configuration not stated) | -30% | . | . | . | . | .
Cn1cncc1C#Cc1ccc2cc(C(C)(C)O)oc(=O)c2c1 | 17% | 4% | 0% | 1% | -11% | 0%
Cn1cncc1C#Cc1ccc2cc(C3(O)CCCCC3)oc(=O)c2c1 | -9% | ? | 5% | 56µM* | 13% | 1%
COc1cccc(-c2cn3c(n2)N(C(=O)C2CCCC2)CCC3)c1 | 62% | . | . | . | . | .
COc1ccccc1CNC(=O)CSc1ccc(-c2sc(-c3ccccc3)nc2C)nn1 | -5% | 28µM* | . | 0% | . | .
Cc1nc(-c2ccccc2)sc1-c1ccc(SCC(=O)NCc2ccccc2)nn1 | -16% | 110% | . | 8% | . | .
CCc1c(C)sc(NC(C)=O)c1C#N | 32µM* | . | . | . | . | .

(listing goes on)
SMILES | ALOX12 inh | ClpP mod | TSG101-PTAP inh | TDP1 block | Rango release inh | Rango-impB inh
CCc1c(C)sc(NC(=O)c2ccncc2)c1C#N | 0% | . | . | . | . | .
CCc1c(C)sc(NC(=O)C2CC3CCC2C3)c1C#N (configuration not stated) | 16µM* | . | . | . | . | .
CCOc1ccc(Cl)cc1CN(C)C(=O)c1cccc(-n2cnnc2)c1 | 15% | . | . | . | . | .
CCOC(=O)C1CCN(S(=O)(=O)c2ccc3c(c2)CCCN3C(C)=O)CC1 | -21% | 2% | -2% | 1% | -19% | 0%
CCOC(=O)C1CCN(S(=O)(=O)c2ccc3c(c2)CC(=O)N3C)CC1 | 45µM* | -5% | -3% | -8% | 6% | 4%
COc1ccc2[nH]cc(CCNc3cc(-c4cccnc4)ncn3)c2c1 | 32µM* | . | . | . | . | .
COc1ccc2[nH]cc(CCNc3ccnc(-c4c(C)noc4C)n3)c2c1 | -2% | . | . | . | . | .

Rango-impB inh: entries above that show a hit
Molecule,ALOX12 inh,TSG101-PTAP inh,TDP1 block,Rango release inh,Rango-impB inh
CCCCN1/C(=C/c2ccc3ccccc3[n+]2CC)Sc2ccccc21,.,12%,2%,16%,46µM*

Single entries from the list.
Rango-impB inh, `CCOC(=O)C1CCN(S(=O)(=O)c2ccc3c(c2)CCCN3C(C)=O)CC1` is entered as 0%
ALOX12 inh, `COc1ccc2[nH]cc(CCNc3cc(-c4cccnc4)ncn3)c2c1` is entered as 32µM*

Compound activity from PubChem.
